pKi: −log10 of the molar value.
Biological target: T1, 5-hydroxytryptamine receptor 2C (Rattus norvegicus, UniProt P08909)
T1 sequence (P08909 whole entry): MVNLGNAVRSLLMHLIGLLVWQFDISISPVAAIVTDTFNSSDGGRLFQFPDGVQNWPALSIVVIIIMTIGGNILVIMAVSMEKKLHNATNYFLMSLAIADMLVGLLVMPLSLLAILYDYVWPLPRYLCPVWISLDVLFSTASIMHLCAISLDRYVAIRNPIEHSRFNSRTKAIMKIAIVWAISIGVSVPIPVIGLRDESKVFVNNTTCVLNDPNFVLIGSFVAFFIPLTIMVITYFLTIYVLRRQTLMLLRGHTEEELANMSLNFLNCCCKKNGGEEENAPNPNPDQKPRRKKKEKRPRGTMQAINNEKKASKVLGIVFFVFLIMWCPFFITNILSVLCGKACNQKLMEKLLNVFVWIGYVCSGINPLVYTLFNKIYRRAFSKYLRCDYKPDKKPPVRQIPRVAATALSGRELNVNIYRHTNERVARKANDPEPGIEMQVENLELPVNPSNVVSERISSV
Assay: Affinity against 5-hydroxytryptamine 2C receptor in J1 cells transfected with the rat 5-HT2C gene labeled with [3H]mesulergine.
Assay type: cell-based
Procedure, shortened: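 Homogenates of J1 cells carrying the rat 5-HT1C (5-HT2C) gene, labeled with [3H]mesulergine. Competing drug and radioligand incubated at 37 °C for 30 min, then filtered through glass-fiber filters and counted by liquid scintillation. Ki given as mean and SEM of at least two experiments, each done in triplicate.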

COc1ccc2[nH]cc(CCN(C)C)c2c1 [MEBUFOTENIN]
pKi: 6.02
